Experimental data as given in patent US20060153807A1, “Vector-mediated gene regulation in midbrain dopamine neurons” (priority 2005, published 2006).
Residue numbers refer to the chain shown, from its start. In names and notes the source's numbering stands.

T1: citrate synthase (CS) (Sus scrofa, UniProt P00889)
T1 construct: purchased Sigma
T1 sequence (P00889 28-464): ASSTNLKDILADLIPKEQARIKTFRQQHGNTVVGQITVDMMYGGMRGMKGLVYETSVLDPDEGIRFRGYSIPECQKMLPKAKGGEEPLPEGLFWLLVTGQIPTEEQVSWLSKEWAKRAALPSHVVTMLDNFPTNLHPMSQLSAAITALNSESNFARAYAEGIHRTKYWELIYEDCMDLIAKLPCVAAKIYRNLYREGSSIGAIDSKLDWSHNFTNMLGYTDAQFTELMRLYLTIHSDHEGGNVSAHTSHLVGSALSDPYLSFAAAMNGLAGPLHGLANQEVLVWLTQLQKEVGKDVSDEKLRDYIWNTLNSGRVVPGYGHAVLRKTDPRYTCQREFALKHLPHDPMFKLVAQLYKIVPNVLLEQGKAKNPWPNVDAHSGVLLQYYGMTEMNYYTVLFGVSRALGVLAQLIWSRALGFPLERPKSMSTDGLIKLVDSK

B1: L166P mutant DJ-1: PD-associated L166P mutant human DJ-1; recombinant protein in vitro or expressed from plasmid in cells (protein, UniProt Q99497 1-189, looked up, variant L166P)
chain: MASKRALVILAKGAEEMETVIPVDVMRRAGIKVTVAGLAGKDPVQCSRDVVICPDASLEDAKKEGPYDVVVLPGGNLGAQNLSESAAVKEILKEQENRKGLIAAICAGPTALLAHEIGFGSKVTTHPLAKDKMMNGGHYTYSENRVEKDGLILTSRGPGTSFEFAPAIVEALNGKEVAAQVKAPLVLKD
B2: C106A/C53A/C46A: triple mutant that harbors mutations at all three cysteines in DJ-1 (protein, UniProt Q99497 1-189, looked up, variant C46A C53A C106A)
chain: B1 chain with C46A, C53A, C106A, P166L

Assays:
citrate synthase (CS) = target: T1, citrate synthase (CS); experiment: suppression of heat-induced aggregation of citrate synthase (chaperone assay); format: biochemical; conditions: 0.8 μM CS, 43° C.; DJ-1 0.5-4.0 μM
Description: FIG. 22 illustrates that DJ-1 is a redox-dependent molecular chaperone. (A) Aggregation of CS was monitored at 43° C. after addition of either 0.8 μM CS alone (black), or along with 8.0 μM RNase A (purple), 0.5 μM DJ-1 (aqua), 2.0 μM DJ-1 (blue), 4.0 μM DJ-1 (red), or 2.0 μM Hsp27 (green). (B) Aggregation of 0.8 μM CS after 30 min at 4° C. […] (C) Aggregation of insulin (26 μM) B chains induced by 20 mM DTT at 25° C. Insulin alone (black) or in the presence of 4.0 μM RNase A (purple), 0.5 μM DJ-1 (aqua), 2.0 μM DJ-1 (blue), 4.0 μM DJ-1 (red), or 2.0 μM Hsp27 (green). […]
To test the redox regulation of DJ-1, the inventors assayed chaperone activity in the CS aggregation assay in the presence or absence of the reducing agent DTT. […] DTT-reduced DJ-1 was incubated with H2O2 (10 mM in aggregation buffer for 10 min at 4° C. followed by dialysis against aggregation buffer for 2 h), and subsequently chaperone activity was measured in the CS thermal aggregation assay. […]
Aggregation assays. CS aggregation was performed in 40 mM HEPES (pH 7.8), 20 mM potassium hydroxinde, 50 mM potassium chloride, and 10 mM ammonium sulfate, and monitored in a thermostat-controlled fluorescence spectrophotometer with excitation and emission wavelengths at 500 nm and slit widths at 2.5 nm. […]

[1] = thermal denaturation monitored by circular dichroism; format: physicochemical; conditions: CD at 222 nm, range studied 0-90° C.
Text: (G) Redox regulation is unaffected by the C106A mutation.
Molecular chaperones typically display marked stability to thermal stress (Sastry et al. 2002). […] (see FIG. 28).

αSyn = αSyn aggregation in FeCl2-treated CAD neuroblastoma cells, Triton X-100 fractions; format: cell-based, mouse; conditions: overexpression by transfection, 2 mM FeCl2 18 h
Description: FIG. 24 illustrates that overexpression of WT DJ-1 inhibits aggregation of αSyn in vivo. (A) CAD murine neuroblastoma cells were transfected with Flag-αSyn along with WT DJ-1, L166P clinical mutant, or vector alone, and were differentiated in vitro via serum withdrawal. Cells were subsequently treated with 2 mM FeCl2 (Fe), 5 μM lactacystin (LC), or media alone (0). Triton X-100-soluble (Tx-100 sol) and Triton X-100-insoluble (Tx-100 insol) fractions were analyzed by Western blotting. Upon FeCl2 treatment, αSyn accumulates in the Triton X-100-insoluble fraction, and accumulation of insoluble αSyn is inhibited by overexpression of WT DJ-1 (left) but not the L166P clinical mutant (right). (B) Triton X-100-insoluble αSyn as quantified by NIH Image J of a Western blot (from [A]). (C) Heterozygous (±) and DJ-1 deficient (−/−) ES cells were differentiated using the embryoid body protocol. Cells were transfected with Flag-αSyn (F-αSyn), and, after 48 h, treated with 2 mM FeCl2 or with media alone for 18 h. Cell lysates were analyzed by Western blotting for αSyn or β-actin. […]
(A) Undifferentiated ES cells were transfected with Flag-αSyn and treated with 2 mM FeCl2 (Fe) or media alone (0) as described in FIG. 3. […] (C) Flag-αSyn from (B) was quantitated using NIH Image J.
The activity of DJ-1 overexpression on αSyn aggregation in this tissue culture model system was evaluated. […]

[2] = system: CAD murine neuroblastoma cells; experiment: αSyn intracytoplasmic inclusions in CAD cells, confocal quantification; format: cell-based, mouse; conditions: overexpression with Flag-αSyn, vs vector
Description: (A-L) CAD murine neuroblastoma cells were transfected with WT DJ-1 (A-F), L166P DJ-1 (G-I) or vector control (J-L), along with Flag-αSyn (D-L) or vector control (A-C) and differentiated in vitro by serum withdrawal for 72 h. Cells were fixed and stained with a mouse monoclonal antibody for αSyn and ToPro3, a nuclear dye, and images were obtained by confocal microscopy. Transfection of Flag-αSyn induced formation of intracytoplasmic inclusions (arrows). Scale bar, 20 μm. (M) Quantification of cells with inclusions was performed on ten random images from each of three wells per condition. Images were quantified by an observer blinded to the experiment. […] Aggregation is expressed as the percentage of cells containing αSyn aggregates per frame. […]
(§1) Quantification of CAD cell aggregates was performed using a Zeiss LSM Pascal confocal microscope (Zeiss, Oberkochen, Germany) with a 20× long working distance lens. […] Images from tenrandomly selected fields in each of three wells were quantified for each condition. Cells containing at least one intracytoplasmic aggregate, independent of size or number per cell, were scored as positive for aggregates. This number was divided by the number of transfected cells per field, determined by GFP fluorescence.

[3] = system: CAD murine neuroblastoma cells; experiment: Q333P mutant NFL intracytoplasmic inclusions in CAD cells; format: cell-based, mouse; conditions: co-overexpression with Q333P mutant NFL
Description: After 72 h in culture, cells were fixed and stained with a mouse monoclonal antibody for NFL and ToPro3, a nuclear dye. Scale bar, 100 μm. (M-R) CAD cell transfectants, as above, were fixed and stained with a polyclonal antibody for NFL (Perez-Olle et al. 2002) along with a mouse monoclonal antibody specific for the transfected human DJ-1. Scale bar, 20 μm. (S) Quantification of CAD cell NFL aggregates was performed using confocal microscopy. Images from tenrandomly selected fields in each of three wells were quantified for the presence of aggregates for each condition and presented as a percentage of total cells per field.
In a separate set of experiments, the inventors assayed the ability of DJ-1 to inhibit aggregation of a second substrate, neurofilament light subunit (NFL). […]
as §1

HeLa cells = experiment: rescue from Q333P mutant NFL toxicity in HeLa cells, MTT reduction assay; format: cell-based; conditions: 72 h after transfection
Description: FIG. 30 depicts the additional studies of DJ-1 mutations. […] Cells from FIG. 4M were quantified via ToPro3 nuclear staining and are expressed as number of cells per field from ten independent fields in each of three wells. […] GFP positive transfected cells from FIG. 5A-5L were quantified and are expressed as number of transfected cells per field from ten independent fields in each of three wells. […] After 72 h, cells were assayed by MTT reduction assay (which detects reduction of 3-(4,5-dimethylthiazol-2-yl)-2,5-diphenyltetrazolium bromide by metabolic enzymes) (Martinat et al. 2004). […] Undifferentiated ES cells were transfected with Q333P mutant NFL along with WT human DJ-1, C53A mutant DJ-1, or vector control. After 72 h, cells were assayed by MTT reduction assay (Martinat et al. 2004). […] Cells were differentiated for 72 h and lysed to produce Triton X-100-soluble and -insoluble fractions. Lysates were exposed to Western blotting with an antibody against transfected human NFL.

DJ-1-deficient ES cells = experiment: rescue of DJ-1-deficient ES cells from H2O2 toxicity, MTT assay; conditions: transient transfection of expression plasmid, 10 μM H2O2 for 15 h, vs vector alone

Molecule | chaperone activity: suppression of heat-induced CS aggregation (citrate synthase (CS)) | thermal unfolding transition [1] | accumulation of Triton X-100-insoluble αSyn (αSyn) | number of cells containing αSyn aggregates [2] | accumulation of NFL inclusions [3] | rescue from Q333P mutant NFL toxicity (HeLa cells) | viability of H2O2-treated DJ-1 knockout cells after transfection (DJ-1-deficient ES cells)
B1 | abrogated chaperone activity | does not exhibit a thermal unfolding transition | but not | fails to do so | failed to inhibit the accumulation of aggregates | but not | did not significantly alter the viability of H2O2-treated knockout cells
B2 | loss of chaperone function |  |  |  |  |  | failed to protect from H2O2 toxicity
